# Data taken from US10202345B2, “Substituted azaspiro(4.5)decane derivatives” (priority 2014, dated 2019).
# Amino acid sequences for entries named in this document (tags omitted). A change or cut given only in a name is not applied to a line headed by its entry.
# UniProt P35372, whole entry, looked up: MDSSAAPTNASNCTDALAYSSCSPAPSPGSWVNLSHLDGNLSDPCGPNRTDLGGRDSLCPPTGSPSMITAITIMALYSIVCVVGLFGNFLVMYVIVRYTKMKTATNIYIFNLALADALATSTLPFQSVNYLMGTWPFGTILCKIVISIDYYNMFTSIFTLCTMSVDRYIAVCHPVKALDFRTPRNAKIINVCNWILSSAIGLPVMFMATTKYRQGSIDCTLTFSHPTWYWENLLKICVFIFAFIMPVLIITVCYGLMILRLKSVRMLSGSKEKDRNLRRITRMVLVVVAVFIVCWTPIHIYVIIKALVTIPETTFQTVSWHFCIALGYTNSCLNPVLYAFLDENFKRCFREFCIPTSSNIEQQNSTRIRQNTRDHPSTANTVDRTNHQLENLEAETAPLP
# UniProt P41146: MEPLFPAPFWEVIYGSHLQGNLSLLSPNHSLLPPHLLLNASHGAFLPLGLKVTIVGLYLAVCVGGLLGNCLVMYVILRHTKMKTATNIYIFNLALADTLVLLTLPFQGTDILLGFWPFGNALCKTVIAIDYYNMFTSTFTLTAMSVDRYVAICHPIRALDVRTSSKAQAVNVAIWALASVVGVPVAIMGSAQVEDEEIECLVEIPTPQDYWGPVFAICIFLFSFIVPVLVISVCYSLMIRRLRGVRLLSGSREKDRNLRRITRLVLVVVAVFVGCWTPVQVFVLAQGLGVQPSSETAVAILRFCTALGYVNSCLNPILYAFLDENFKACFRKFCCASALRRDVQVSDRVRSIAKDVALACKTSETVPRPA
# What was measured:
# [1] = biological target: human μ opiate receptor (Homo sapiens, UniProt P35372); assay: μ opiate receptor binding assay with [3H]-naloxone (WGA-SPA beads); details: for Ki: read-out: Ki (μ) mean [μm], mean; for % inhibition (μ) [1 μM]: test concentration 1 μM
# [2] = biological target: ORL1 receptor (Homo sapiens, UniProt P41146); assay: ORL1 receptor binding assay with 3H-nociceptin/orphanin FQ (WGA-SPA beads); details: for Ki: read-out: Ki (ORL1) mean, mean; for % inhibition (ORL1) [1 μM]: test concentration 1 μM
# [3] = tested on: rats
# [4] = tested on: rats; assay: Analgesia in the tail flick (focal ray) test in rats, intravenous administration
Compound,Ki [1],% inhibition (μ) [1 μM] [1],Ki [2],% inhibition (ORL1) [1 μM] [2],"SNL rat, i.v. % MPE (@μg/kg) ([3]; @21.5 μg/kg)","Tail flick rat, i.v. ED50 rat [μg/kg] [4]","SNL rat, i.v. ED50 rat [μg/kg] [3]","SNL rat, i.v. % MPE (@μg/kg) ([3]; @6.81 μg/kg)"
CN(C)C1(c2ccccc2)CCC2(CCN(C(=O)CC3CCCO3)C2)CC1 (stereo not drawn),1.15 nM,99.5%,1.11 nM,97%,69%@21.5,16.2 µg/kg,,
CCCC(=O)N1CCC2(CCC(c3cccs3)(N(C)C)CC2)C1 (stereo not drawn),2.27 nM,98.5%,9.6 nM,82.5%,,26 µg/kg,30 µg/kg,
CCCC(=O)N1CCC2(CCC(c3ccc(C)s3)(N(C)C)CC2)C1 (stereo not drawn),7.65 nM,93.5%,15.5 nM,77.5%,,6.54 µg/kg,,44%@6.81
CN(C)C1(C2CCCC2)CCC2(CCN(C(=O)CC3CC3)C2)CC1 (stereo not drawn),4.05 nM,99.5%,29.5 nM,79%,,5.43 µg/kg,2.44 µg/kg,
CN(C)C1(c2ccccc2)CCC2(CCN(C(=O)CC3(C#N)CCC3)C2)CC1 (stereo not drawn),1.04 nM,100.5%,0.75 nM,96.5%,65%@21.5,15.2 µg/kg,,
CCCC(=O)N1CCC2(CCC(c3ccccc3)(N(C)C)CC2)C1 (stereo not drawn),30.5 nM,93%,5.85 nM,81.5%,,157 µg/kg,100 µg/kg,

# Like-named read-outs stand apart in the source and are kept apart here.
